Measured values: patent US10202345B2, “Substituted azaspiro(4.5)decane derivatives” (priority 2014, dated 2019)

Chains of the proteins cited; added tags and fusions are not shown. Lines headed by an entry give the natural chain unless they say otherwise; changes in a name come on top.
UniProt P41146: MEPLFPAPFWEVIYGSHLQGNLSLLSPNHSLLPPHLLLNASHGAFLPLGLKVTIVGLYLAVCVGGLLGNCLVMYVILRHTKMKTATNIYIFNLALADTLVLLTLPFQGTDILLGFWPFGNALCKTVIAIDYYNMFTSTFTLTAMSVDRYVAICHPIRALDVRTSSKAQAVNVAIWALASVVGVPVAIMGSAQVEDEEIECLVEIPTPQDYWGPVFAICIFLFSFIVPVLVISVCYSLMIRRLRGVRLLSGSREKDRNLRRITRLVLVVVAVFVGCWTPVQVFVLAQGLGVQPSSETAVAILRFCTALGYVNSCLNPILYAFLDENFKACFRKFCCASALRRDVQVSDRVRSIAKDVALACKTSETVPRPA
UniProt P35372, whole entry, looked up: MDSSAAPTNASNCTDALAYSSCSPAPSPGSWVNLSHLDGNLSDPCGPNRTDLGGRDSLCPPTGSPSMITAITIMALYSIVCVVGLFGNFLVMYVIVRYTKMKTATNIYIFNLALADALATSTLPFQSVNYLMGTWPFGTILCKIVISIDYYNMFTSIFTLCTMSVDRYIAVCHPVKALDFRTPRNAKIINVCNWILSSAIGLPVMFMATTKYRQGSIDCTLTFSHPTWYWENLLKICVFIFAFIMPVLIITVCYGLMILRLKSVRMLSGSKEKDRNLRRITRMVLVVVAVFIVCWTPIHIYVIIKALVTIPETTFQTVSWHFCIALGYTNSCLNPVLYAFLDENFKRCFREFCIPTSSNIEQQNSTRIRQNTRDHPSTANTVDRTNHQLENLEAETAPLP

Experiments:
rats [1] = tested on: rats
ORL1 receptor = ORL1 receptor (Homo sapiens, UniProt P41146); assay: ORL1 receptor binding assay with 3H-nociceptin/orphanin FQ (WGA-SPA beads); conditions: for Ki: read-out: Ki (ORL1) mean, mean; for % inhibition (ORL1) [1 μM]: test concentration 1 μM
rats [2] = assay: Analgesia in the tail flick (focal ray) test in rats, intravenous administration
human μ opiate receptor = human μ opiate receptor (Homo sapiens, UniProt P35372); assay: μ opiate receptor binding assay with [3H]-naloxone (WGA-SPA beads); conditions: for Ki: read-out: Ki (μ) mean [μm], mean; for % inhibition (μ) [1 μM]: test concentration 1 μM

| Compound | SNL rat, i.v. ED50 rat [μg/kg] (rats [1]) [µg/kg] | Ki (ORL1 receptor) [µM] | % inhibition (ORL1) [1 μM] (ORL1 receptor) [%] | Tail flick rat, i.v. ED50 rat [μg/kg] (rats [2]) [µg/kg] | Ki (human μ opiate receptor) [µM] | % inhibition (μ) [1 μM] (human μ opiate receptor) [%] | SNL rat, i.v. % MPE (@μg/kg) (rats [1]; @6.81 μg/kg) [%@6.81] | Tail flick rat, i.v. % MPE (@μg/kg) (rats [2]; @100 μg/kg) [%@100 % MPE] |
| --- | --- | --- | --- | --- | --- | --- | --- | --- |
| CCCCN1CCC2(CCC(c3cccs3)(N(C)C)CC2)C1 (stereo not shown) | 105 | 0.0029 | 89.5 | 414 | 0.0028 | 98.5 |  |  |
| 3-(2-cyclopropylethyl)-8-(dimethylamino)-8-phenyl-3-azaspiro[4.5]decan-2-one |  | 0.00066 | 97 | 3.25 | 0.0003 | 95.5 |  |  |
| CCCC(=O)N1CCC2(CCC(c3ccc(C)s3)(N(C)C)CC2)C1 (stereo not shown) |  | 0.0155 | 77.5 | 6.54 | 0.00765 | 93.5 | 44 |  |
| CN(C)C1(c2cccs2)CCC2(CCN(C(=O)CC3CCOC3)C2)CC1 (stereo not shown) |  | 0.0034 | 89 | 7.16 | 0.00175 | 99 |  |  |
| 1-(8-Dimethylamino-8-thiophen-2-ylmethyl-2-azaspiro[4.5]dec-2-yl)-butan-1-one |  | 0.00115 | 97 | 0.7 | 0.0004 | 100 |  |  |
| CN(C)C1(c2cccs2)CCC2(CCN(C(=O)CC3(C#N)CC3)C2)CC1 (stereo not shown) |  | 0.00295 | 92 | 14.6 | 0.00107 | 99.5 |  |  |
| CN(C)C1(c2cccs2)CCC2(CCN(C(=O)CC3CCCO3)C2)CC1 (stereo not shown) |  | 0.00205 | 96 | 1.86 | 0.0013 | 100.5 |  |  |
| COCCN1CCC2(CCC(c3cccs3)(N(C)C)CC2)C1 (stereo not shown) |  | 0.018 | 71.5 | 5260 | 0.0465 | 80.5 |  |  |
| CN(C)C1(c2ccccc2)CCC2(CCN(C(=O)CC3(C#N)CC3)C2)CC1 (stereo not shown) |  | 0.00247 | 94.5 | 78.6 | 0.00165 | 99 |  |  |
| COC1(CC(=O)N2CCC3(CCC(C4CCCC4)(N(C)C)CC3)C2)CCC1 (stereo not shown) |  | 0.0102 | 91.5 |  | 0.00265 | 98.5 |  | 100 |
| CN(C)C1(C2CCCC2)CCC2(CCN(C(=O)CC(C)(C)C#N)C2)CC1 (stereo not shown) |  | 0.062 | 67 |  | 0.062 | 95.5 |  |  |
| COC1(C(=O)N2CCC3(CCC(c4cccs4)(N(C)C)CC3)C2)CCC1 (stereo not shown) |  | 0.07 | 87 |  | 0.00915 | 99 |  |  |
| CCC(=O)N1CCC2(CCC(c3ccc(C)s3)(N(C)C)CC2)C1 (stereo not shown) |  | 0.15 | 34.5 |  | 0.125 | 80.5 |  |  |
| CC(CO)CN1CCC2(CCC(C3CCCC3)(N(C)C)CC2)C1 (stereo not shown) |  | 0.071 | 66 |  | 0.0495 | 90.5 |  |  |
| CN(C)C1(c2ccccc2)CCC2(CC1)CC(=O)N(CCC1COC1)C2 (stereo not shown) |  | 0.26 | 37.5 |  | 4380 | 58.5 |  |  |
| CCCCC1(N(C)C)CCC2(CCN(C(=O)CCC(C)(C)OC)C2)CC1 (stereo not shown) |  | 0.058 | 60.5 |  | 0.0121 | 96.5 |  |  |
| COCC(C)(C)C(=O)N1CCC2(CCC(c3cccs3)(N(C)C)CC2)C1 (stereo not shown) |  | 0.00945 | 95.5 |  | 0.00165 | 99 |  |  |
| CN(C)C1(c2cccs2)CCC2(CCN(C(=O)C3CCC3)C2)CC1 (stereo not shown) |  | 0.00845 | 73 |  | 0.00805 |  |  |  |
| CCCCN1CCC2(CCC(CC3CCCCC3)(N(C)C)CC2)C1 (stereo not shown) |  | 0.8 | 35.5 |  | 0.0053 | 102.5 |  |  |
| CCCC(=O)N1CCC2(CCC(c3ccccc3)(N(C)C)CC2)C1 (single isomer, unassigned) |  | 0.15 | 49 |  | 0.2 | 70.5 |  |  |
| CN(C)C1(c2cccs2)CCC2(CCN(CC3CCOCC3)C2)CC1 (stereo not shown) |  | 0.00445 | 95 |  | 0.0049 | 99 |  |  |
| CN(C)C1(c2ccccc2)CCC2(CCN(CC3(C#N)CCC3)C2)CC1 (stereo not shown) |  | 0.0076 | 92 |  | 0.0025 | 98 |  |  |
| CN(C)C1(c2ccccc2)CCC2(CCN(CCC3COC3)C2)CC1 (stereo not shown) |  | 0.031 | 91.5 |  | 0.011 | 99.5 |  |  |
| COC1(CCN2CC3(CCC(C4CCCC4)(N(C)C)CC3)CC2=O)CCC1 (stereo not shown) |  | 0.027 | 83 |  | 0.00105 | 99 |  |  |
| CN(C)C1(c2ccccc2)CCC2(CC1)CC(=O)N(CC1(C#N)CC1)C2 (stereo not shown) |  | 0.0018 | 96.5 |  | 0.0036 | 98 |  |  |

| Compound | SNL rat, i.v. ED50 rat [μg/kg] (rats [1]) [µg/kg] | Ki (ORL1 receptor) [µM] | % inhibition (ORL1) [1 μM] (ORL1 receptor) [%] | Tail flick rat, i.v. ED50 rat [μg/kg] (rats [2]) [µg/kg] | Ki (human μ opiate receptor) [µM] | % inhibition (μ) [1 μM] (human μ opiate receptor) [%] | SNL rat, i.v. % MPE (@μg/kg) (rats [1]; @6.81 μg/kg) [%@6.81] | Tail flick rat, i.v. % MPE (@μg/kg) (rats [2]; @100 μg/kg) [%@100 % MPE] |
| --- | --- | --- | --- | --- | --- | --- | --- | --- |
| COCC1(C(=O)N2CCC3(CCC(c4ccc(F)s4)(N(C)C)CC3)C2)CC1 (stereo not shown) |  | 0.169 |  |  | 0.0225 | 93 |  |  |
| COCC1(C(=O)N2CCC3(CCC(c4ccc(C)s4)(N(C)C)CC3)C2)CCC1 (stereo not shown) |  | 0.114 | 42 |  | 0.00635 | 96.5 |  |  |
| CCCCN1CCC2(CCC(c3ccc(C)s3)(N(C)C)CC2)C1 (stereo not shown) |  | 0.039 | 91 |  | 0.00815 | 98.5 |  |  |
| CN(C)C1(c2cccs2)CCC2(CCN(C(=O)CC3CCOCC3)C2)CC1 (stereo not shown) |  | 0.0098 | 93.5 |  | 0.0016 | 98.5 |  |  |
| CN1CCC2(CCC(c3cccs3)(N(C)C)CC2)C1 (stereo not shown) |  | 0.08 | 70 |  | 0.044 | 85 |  |  |
| CCCC(=O)N1CCC2(CCC(c3ccc(Cl)s3)(N(C)C)CC2)C1 (stereo not shown) |  | 0.0735 | 72 |  | 0.0125 | 97.5 |  |  |
| CN(C)C1(c2ccccc2)CCC2(CCN(C(=O)C3CC3)C2)CC1 (stereo not shown) |  | 0.02 | 71.5 |  | 0.0205 | 89.5 |  |  |
| CN(C)C1(C2CCCC2)CCC2(CCN(CC3CCOCC3)C2)CC1 (stereo not shown) |  | 0.029 | 71 |  | 0.006 | 95.5 |  |  |
| CN(C)C1(c2cccs2)CCC2(CCN(CC3CCCC3)C2=O)CC1 (stereo not shown) |  | 1.57 | 20 |  | 0.145 | 67.5 |  |  |
| CN(C)C1(c2cccs2)CCC2(CCN(CC(C)(C)O)C2)CC1 (stereo not shown) |  | 0.0165 | 81.5 |  | 0.0175 | 94 |  |  |
| CN(C)C1(c2cccs2)CCC2(CCN(C(=O)CC(C)(C)C#N)C2)CC1 (stereo not shown) |  | 0.00225 | 96 |  | 0.0013 | 98.5 |  |  |
| CN(C)C1(C2CCCC2)CCC2(CC1)CC(=O)N(CCC1COC1)C2 (stereo not shown) |  | 0.205 | 40 |  | 0.034 | 87.5 |  |  |
| COC(C)(C)CN1CCC2(CCC(C3CCCC3)(N(C)C)CC2)C1 (stereo not shown) |  | 0.0205 | 85 |  | 0.00305 | 98 |  |  |
| CN(C)C1(c2cccs2)CCC2(CCN(CC3CCC3)C2)CC1 (stereo not shown) |  | 0.0017 | 97 |  | 0.00102 | 100 |  |  |
| CN(C)C1(c2cccs2)CCC2(CCN(C(=O)C3(C#N)CC3)C2)CC1 (stereo not shown) |  | 0.155 | 52.67 |  | 0.0535 | 93.5 |  |  |
| CN(C)C1(C2CCCC2)CCC2(CC1)CC(=O)N(CCC1CCC1)C2 (stereo not shown) |  | 0.016 | 91.5 |  | 0.00155 | 100 |  |  |
| COC(C)(C)CC(=O)N1CCC2(CCC(c3ccccc3)(N(C)C)CC2)C1 (stereo not shown) |  | 0.0019 | 93 |  | 0.0018 | 99.5 |  |  |
| CN(C)C1(c2ccccc2)CCC2(CCN(C(=O)CC(C)(C)C#N)C2)CC1 (stereo not shown) |  | 0.00285 | 97.5 |  | 0.0031 | 97.5 |  |  |
| CN(C)C1(c2ccccc2)CCC2(CC1)CC(=O)N(CC1CC1)C2 (stereo not shown) |  | 0.0047 | 91 | 26.8 | 0.003 | 99 |  |  |
| CN1CC2(CCC(c3ccccc3)(N(C)C)CC2)CC1=O (stereo not shown) |  | 0.029 | 82 | 422 | 0.038 | 95 |  |  |
| COCCN1CCC2(CCC(c3ccc(C)s3)(N(C)C)CC2)C1 (stereo not shown) |  | 0.064 | 64.5 |  | 0.078 | 83.5 |  |  |
| CN(C)C1(c2cccs2)CCC2(CC1)CC(=O)N(CC1(C#N)CC1)C2 (stereo not shown) |  | 0.00143 | 95.5 |  | 0.00135 | 99.5 |  |  |
| COC(C)(C)CN1CC2(CCC(c3cccs3)(N(C)C)CC2)CC1=O (stereo not shown) |  | 0.0018 | 96 |  | 0.0027 | 104 |  |  |
| CN(C)C1(c2cccs2)CCC2(CCN(C(=O)CCC3(C#N)CC3)C2)CC1 (stereo not shown) |  | 0.00145 | 95 |  | 0.00125 | 99 |  |  |
